Results on 37 molecules are retold here after patent US11186582B2, “Substituted [1,2,4]triazolo[1,5-a]pyrimidin-7-yl compounds as PDE2 inhibitors” (DART NEUROSCIENCE (CAYMAN) LTD., priority 2014, dated 2021).

The chains behind the UniProt entries cited, without tags or fusion partners. Residues count along the entry.
UniProt O00408, 2-941: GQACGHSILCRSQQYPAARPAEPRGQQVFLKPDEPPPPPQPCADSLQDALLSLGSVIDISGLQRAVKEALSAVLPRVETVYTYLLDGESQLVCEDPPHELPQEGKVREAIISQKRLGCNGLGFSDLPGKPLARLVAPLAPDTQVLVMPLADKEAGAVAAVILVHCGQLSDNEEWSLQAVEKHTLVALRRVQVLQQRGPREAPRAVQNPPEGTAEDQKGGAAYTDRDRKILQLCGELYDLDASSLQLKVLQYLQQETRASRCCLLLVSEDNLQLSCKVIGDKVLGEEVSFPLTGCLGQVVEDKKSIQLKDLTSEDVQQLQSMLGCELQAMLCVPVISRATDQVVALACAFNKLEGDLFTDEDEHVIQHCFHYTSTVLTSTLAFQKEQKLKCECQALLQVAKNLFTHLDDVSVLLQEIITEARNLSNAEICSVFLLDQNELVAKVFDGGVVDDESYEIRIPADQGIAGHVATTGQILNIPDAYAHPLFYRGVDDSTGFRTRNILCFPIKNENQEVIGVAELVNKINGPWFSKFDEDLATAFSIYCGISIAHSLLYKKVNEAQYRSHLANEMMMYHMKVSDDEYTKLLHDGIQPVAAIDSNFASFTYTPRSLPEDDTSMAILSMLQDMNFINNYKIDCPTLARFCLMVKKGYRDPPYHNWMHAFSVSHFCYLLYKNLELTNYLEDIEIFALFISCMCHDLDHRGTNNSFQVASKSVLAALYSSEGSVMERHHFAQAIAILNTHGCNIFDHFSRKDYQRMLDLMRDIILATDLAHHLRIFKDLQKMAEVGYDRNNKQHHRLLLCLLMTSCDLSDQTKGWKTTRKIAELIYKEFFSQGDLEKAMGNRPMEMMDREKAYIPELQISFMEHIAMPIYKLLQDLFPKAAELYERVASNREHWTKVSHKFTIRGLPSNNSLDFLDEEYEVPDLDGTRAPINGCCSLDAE

The target of the first assay is FLAG-tagged PDE2A1 (amino acids 2-941) (Homo sapiens (Human), UniProt O00408). Description: IMAP TR-FRET PDE2A phosphodiesterase enzymatic assay.
Details: not given
For orientation: TR-FRET usually uses a lanthanide donor and a delayed reading to cut background.
The IC50 is the midpoint of a concentration-inhibition curve. Lower therefore signals greater potency. `Cc1cc(C2CCCN(Cc3cccc(C)c3C)C2)n2ncnc2n1` (stereo not shown) [Example 115, 1-[(2,3-Dimethylphenyl)methyl]-3-{5-methyl-[1,2,4]triazolo[1,5-a]pyrimidin-7-yl}piperidine]: the IC50 is greater than 10000 nM.

Regarding `Cc1cc(C2CCCN(Cc3csc4ccccc34)C2)n2ncnc2n1` (stereo not shown) [Example 116, 1-(1-Benzothiophen-3-ylmethyl)-3-{5-methyl-[1,2,4]triazolo[1,5-a]pyrimidin-7-yl}piperidine], the IC50 lay in the range of 1000 to 10000 nM.

With `COc1cc(CN2CCCC(c3cc(C)nc4ncnn34)C2)ccc1F` (stereo not shown) [Example 117, 1-[(4-Fluoro-3-methoxyphenyl)methyl]-3-{5-methyl-[1,2,4]triazolo[1,5-a]pyrimidin-7-yl}piperidine], the IC50 lay within 1000 to 10000 nM.

`Cc1cc(C2CCCN(Cc3ccc(Cl)cc3F)C2)n2ncnc2n1` (stereo not shown) [Example 118, 1-[(4-Chloro-2-fluorophenyl)methyl]-3-{5-methyl-[1,2,4]triazolo[1,5-a]pyrimidin-7-yl}piperidine] came in with an IC50 of 1000 to 10000 nM.

`Cc1cc(C2CCCN(Cc3ccc4c(c3)OC(F)(F)O4)C2)n2ncnc2n1` (stereo not shown) [Example 121, 1-[(2,2-Difluoro-2H-1,3-benzodioxol-5-yl)methyl]-3-{5-methyl-[1,2,4]triazolo[1,5-a]pyrimidin-7-yl}piperidine] had a concentration for half-maximal inhibition (IC50) greater than 10000 nM.

As for `Cc1cc(C2CCCN(Cc3c(C)nn(C(C)C)c3C)C2)n2ncnc2n1` (stereo not shown) [Example 122, 1-{[3,5-Dimethyl-1-(propan-2-yl)-1H-pyrazol-4-yl]methyl}-3-{5-methyl-[1,2,4]triazolo[1,5-a]pyrimidin-7-yl}piperidine], the half-inhibitory concentration (IC50) is greater than 10000 nM.

The molecule `Cc1cccc(CN2CCCC(c3cc(C)nc4ncnn34)C2)n1` (stereo not shown) [Example 124, 2-Methyl-6-[(3-{5-methyl-[1,2,4]triazolo[1,5-a]pyrimidin-7-yl}piperidin-1-yl)methyl]pyridine] displayed an IC50 of 1000 to 10000 nM.

For the molecule `Cc1cc(C2CCCN(Cc3ccc(-c4ccco4)cc3)C2)n2ncnc2n1` (stereo not shown) [Example 125, 1-{[4-(Furan-2-yl)phenyl]methyl}-3-{5-methy-[1,2,4]triazolo[1,5-a]pyrimidin-7-yl}piperidine], the IC50 lay within 100 to 1000 nM.

With `Cc1cc(C2CCCN(Cc3cccc(OC(C)C)c3)C2)n2ncnc2n1` (stereo not shown) [Example 126, 3-{5-Methyl-[1,2,4]triazolo[1,5-a]pyrimidin-7-yl}-1-{[3-(propan-2-yloxy)phenyl]methyl}piperidine], the IC50 was in the range of 1000 to 10000 nM.

`Cc1cc(C2CCCN(Cc3cccc(OC(F)F)c3)C2)n2ncnc2n1` (stereo not shown) [Example 128, 1-{[3-(Difluoromethoxy)phenyl]methyl}-3-{5-methyl-[1,2,4]triazolo[1,5-a]pyrimidin-7-yl}piperidine] yielded an IC50 greater than 10000 nM.

Molecule `Cc1cc(C2CCCN(Cc3ccc(-n4ccnc4)cc3)C2)n2ncnc2n1` (stereo not shown) [Example 129, 1-{[4-(1H-Imidazol-1-yl)phenyl]methyl}-3-{5-methyl-[1,2,4]triazolo[1,5-a]pyrimidin-7-yl}piperidine] registered an IC50 of 100 to 1000 nM.

Consider `Cc1cc(C2CCCN(Cc3ccc(Cl)cn3)C2)n2ncnc2n1` (stereo not shown) [Example 130, 5-Chloro-2-[(3-{5-methyl-[1,2,4]triazolo[1,5-a]pyrimidin-7-yl}piperidin-1-yl)methyl]pyridine], for which the half-maximal inhibitory concentration (IC50) lay in the range of 1000 to 10000 nM.

Regarding `Cc1cc(C2CCCN(Cc3ccc(Br)cc3F)C2)n2ncnc2n1` (stereo not shown) [Example 132, 1-[(4-Bromo-2-fluorophenyl)methyl]-3-{5-methyl-[1,2,4]triazolo[1,5-a]pyrimidin-7-yl}piperidine], the 50% inhibitory concentration (IC50) was in the range of 100 to 1000 nM.

Take `Cc1cc([C@@H]2CCCN(Cc3ccc(Br)cc3)C2)n2ncnc2n1` [Example 133, (3R)-1-[(4-Bromophenyl)methyl]-3-{5-methyl-[1,2,4]triazolo[1,5-a]pyrimidin-7-yl}piperidine]: the IC50 was 1000 to 10000 nM.

Take `Cc1cc(C2CCCN(Cc3ccc(Br)cn3)C2)n2ncnc2n1` (stereo not shown) [Example 135, 5-bromo-2-[(3-{5-Methyl-[1,2,4]triazolo[1,5-a]pyrimidin-7-yl}piperidin-1-yl)methyl]pyridine]: the IC50 lay within 100 to 1000 nM.

In turn, `Cc1cc(C2CCCN(Cc3cc(C)c(Br)cn3)C2)n2ncnc2n1` (stereo not shown) [Example 136, 5-Bromo-4-methyl-2-[(3-{5-methyl-[1,2,4]triazolo[1,5-a]pyrimidin-7-yl}piperidin-1-yl)methyl]pyridine] registered an IC50 of 100 to 1000 nM.

On to `Cc1cc(C2CCCN(Cc3ccc(Br)c(C)n3)C2)n2ncnc2n1` (stereo not shown) [Example 137, 3-Bromo-2-methyl-6-[(3-{5-methyl-[1,2,4]triazolo[1,5-a]pyrimidin-7-yl}piperidin-1-yl)methyl]pyridine], for which the IC50 was 100 to 1000 nM.

With `Cc1cc(C2CCCN(Cc3ncc(Br)cn3)C2)n2ncnc2n1` (stereo not shown) [Example 138, 5-Bromo-2-[(3-{5-methyl-[1,2,4]triazolo[1,5-a]pyrimidin-7-yl}piperidin-1-yl)methyl]pyrimidine], the IC50 lay in the range of 1000 to 10000 nM.

As for `Cc1cc([C@@H]2CCCN(Cc3ccc(Cl)c(F)c3)C2)n2ncnc2n1` [Example 140, (3R)-1-[(4-Chloro-3-fluorophenyl)methyl]-3-{5-methyl-[1,2,4]triazolo[1,5-a]pyrimidin-7-yl}piperidine], the IC50 lay in the range of 100 to 1000 nM.

Consider `Cc1cc(C2CCCN(Cc3ccc4c(c3)CCC4)C2)n2ncnc2n1` (stereo not shown) [Example 142, 1-(2,3-Dihydro-1H-inden-5-ylmethyl)-3-{5-methyl-[1,2,4]triazolo[1,5-a]pyrimidin-7-yl}piperidine], for which the IC50 was in the range of 100 to 1000 nM.

Molecule `Cc1cc(C2CCCN(Cc3ccc(Br)cc3)C2)n2ncnc2n1` (stereo not shown) [Example 143, 1-[(4-Bromophenyl)methyl]-3-{5-methyl-[1,2,4]triazolo[1,5-a]pyrimidin-7-yl}piperidine] showed an IC50 of 100 to 1000 nM.

In turn, `Cc1cc(C2CCCN(Cc3c(F)cc(Br)cc3F)C2)n2ncnc2n1` (stereo not shown) [Example 144, 1-[(4-Bromo-2,6-difluorophenyl)methyl]-3-{5-methyl-[1,2,4]triazolo[1,5-a]pyrimidin-7-yl}piperidine] gave an IC50 of 100 to 1000 nM.

`Cc1cc(C2CCCN(Cc3cc(Br)ccc3F)C2)n2ncnc2n1` (stereo not shown) [Example 145, 1-[(5-Bromo-2-fluorophenyl)methyl]-3-{5-methyl-[1,2,4]triazolo[1,5-a]pyrimidin-7-yl}piperidine] yielded an IC50 of 100 to 1000 nM.

With `CCn1ccc2ccc(CN3CCCC(c4cc(C)nc5ncnn45)C3)cc21` (stereo not shown) [Example 146, 1-Ethyl-6-[(3-{5-methyl-[1,2,4]triazolo[1,5-a]pyrimidin-7-yl}piperidin-1-yl)methyl]-1H-indole], the IC50 was 1000 to 10000 nM.

`Cc1cc(C2CCCN(Cc3ccc(-c4nccs4)cc3)C2)n2ncnc2n1` (stereo not shown) [Example 147, 3-{5-Methyl-[1,2,4]triazolo[1,5-a]pyrimidin-7-yl}-1-{[4-(1,3-thiazol-2-yl)phenyl]methyl}piperidine] displayed an IC50 of 100 to 1000 nM.

In turn, `Cc1cc(C2CCCN(Cc3ccc(-n4cccn4)cc3)C2)n2ncnc2n1` (stereo not shown) [Example 148, 3-{5-Methyl-[1,2,4]triazolo[1,5-a]pyrimidin-7-yl}-1-{[4-(1H-pyrazol-1-yl)phenyl]methyl}piperidine] had an IC50 of 100 to 1000 nM.

`Cc1cc(C2CCCN(Cc3ccc(CC(C)C)cc3)C2)n2ncnc2n1` (stereo not shown) [Example 149, 3-{5-Methyl-[1,2,4]triazolo[1,5-a]pyrimidin-7-yl}-1-{[4-(2-methylpropyl)phenyl]methyl}piperidine]: the half-inhibitory concentration (IC50) is 1000 to 10000 nM.

In turn, `Cc1cc(C2CCCN(Cc3ccc(C4CC4)cc3)C2)n2ncnc2n1` (stereo not shown) [Example 151, 1-[(4-Cyclopropylphenyl)methyl]-3-{5-methyl-[1,2,4]triazolo[1,5-a]pyrimidin-7-yl}piperidine] registered an IC50 of 1000 to 10000 nM.

As to `Cc1cc(C2CCCN(Cc3ccc(Br)cc3Cl)C2)n2ncnc2n1` (stereo not shown) [Example 152, 1-[(4-Bromo-2-chlorophenyl)methyl]-3-{5-methyl-[1,2,4]triazolo[1,5-a]pyrimidin-7-yl}piperidine], the IC50 was in the range of 1000 to 10000 nM.

`Cc1cc(C2CCCN(Cc3ccc(C(C)(C)C)cc3)C2)n2ncnc2n1` (stereo not shown) [Example 153, 1-[(4-tert-Butylphenyl)methyl]-3-{5-methyl-[1,2,4]triazolo[1,5-a]pyrimidin-7-yl}piperidine] gave an IC50 of 1000 to 10000 nM.

`Cc1cc(C2CCCN(Cc3ccc4ccncc4c3)C2)n2ncnc2n1` (stereo not shown) [Example 154, 7-[(3-{5-Methyl-[1,2,4]triazolo[1,5-a]pyrimidin-7-yl}piperidin-1-yl)methyl]isoquinoline]: the IC50 lay within 100 to 1000 nM.

As to `Cc1cc(C2CCCN(Cc3ccc(C)c(F)c3F)C2)n2ncnc2n1` (stereo not shown) [Example 155, 1-[(2,3-Difluoro-4-methylphenyl)methyl]-3-{5-methyl-[1,2,4]triazolo[1,5-a]pyrimidin-7-yl}piperidine], the IC50 was in the range of 100 to 1000 nM.

The same assay, now with this note: IMAP TR-FRET, 200 nM FAM-cAMP substrate, 11-point half-log dose-response.
Turning to `COc1ccc2cc(CN3CCCC(c4cc(C)nc5ncnn45)C3)ccc2c1` (stereo not shown) [Example 120, 7-(1-((6-Methoxynaphthalen-2-yl)methyl)piperidin-3-yl)-5-methyl-[1,2,4]triazolo[1,5-a]pyrimidine], the “PDE2 (pIC50)” value was greater than 7.

`Cc1cc([C@H]2CCCN(Cc3ccc(Br)cc3)C2)n2ncnc2n1` [Example 134, (3S)-1-[(4-Bromophenyl)methyl]-3-{5-methyl-[1,2,4]triazolo[1,5-a]pyrimidin-7-yl}piperidine]: the “PDE2 (pIC50)” value is listed as greater than 7.

For `Cc1cc(C2CCCN(Cc3ccc(Br)c(F)c3)C2)n2ncnc2n1` (stereo not shown) [Example 139, 1-[(4-Bromo-3-fluorophenyl)methyl]-3-{5-methyl-[1,2,4]triazolo[1,5-a]pyrimidin-7-yl}piperidine], the “PDE2 (pIC50)” value is on record as greater than 7.

As to `Cc1cc([C@H]2CCCN(Cc3ccc(Cl)c(F)c3)C2)n2ncnc2n1` [Example 141, (3S)-1-[(4-Chloro-3-fluorophenyl)methyl]-3-{5-methyl-[1,2,4]triazolo[1,5-a]pyrimidin-7-yl}piperidine], the “PDE2 (pIC50)” value is given as greater than 7.

For the molecule `Cc1cc(C2CCCN(Cc3ccc(Br)c(Cl)c3)C2)n2ncnc2n1` (stereo not shown) [Example 150, 1-[(4-Bromo-3-chlorophenyl)methyl]-3-{5-methyl-[1,2,4]triazolo[1,5-a]pyrimidin-7-yl}piperidine], the “PDE2 (pIC50)” value was greater than 7.
